This passage reports splenocyte proliferative response results from patent publication US7074770B1, “Method of DNA vaccination” (SmithKline Beecham Corporation, priority 1998, dated 2006).

For this experiment, the system named is splenocytes stimulated with S6C-E4 / S6C-VE4 (EBNA-4). It is filed as in vivo, mice. As to conditions: i.m. E4, tucaresol s.c., FIG. 4.

As for `O=Cc1c(O)cccc1OCc1ccc(C(=O)O)cc1` [tucaresol, 4-(2-formyl-3-hydroxyphenoxymethyl)benzoic acid], the splenocyte proliferative response entry was “much stronger proliferative response”.
